The record followed here is patent publication US8367726B2, “Acid salt of tolterodine having effective stability for transdermal drug delivery system” (SK Chemicals Co., Ltd., priority 2008, dated 2013).

The data set can be described thus: In vitro penetration test, Frantz cell mounted with hairless mouse skin. Particulars: 10 mg/mL in propylene glycol, 32° C. As for the experimental part: I mL of tolterodine salt was added onto a Frantz cell, which was mounted with a hairless mouse skin. Then, the amount of tolterodine penetrated through the skin at 32° C. was quantitated and its cumulative amount was measured.

With Tolterodine Glucolate, the “Cumulative amount of tolterodine penetrated through the skin” value (from here on “Cumulative amount”) (0 hr) turned out to be 0.0 µg; the “Cumulative amount” value (3 hr) stood at 1.2 µg; the “Cumulative amount” value (6 hr) was 4.7 µg; the “Cumulative amount” value (9 hr) turned out to be 5.1 µg; the “Cumulative amount” value (12 hr) amounted to 8.3 µg.
